Data set [1] can be described thus: Drug dissociation test: polysaccharide derivative in buffer solution, 36°C, 1 week, HPLC. Format: physicochemical. On the procedure: In the examples relating to drug dissociation test, the drug dissociation ratio was evaluated as described below.
Sodium dihydrogen phosphate dihydrate (780 mg (5.0 mmol)) was dissolved in 500 mL of distilled water to give a liquid A. Separately, disodium hydrogen phosphate dodecahydrate (1.79 g (5.0 mmol)) was dissolved in 500 mL of distilled water to give a liquid B. By mixing the liquid A and liquid B at ratio of 2:3, a phosphate buffer solution of pH 7.5 was prepared.
0.62 g (10 mmol) of boric acid and 0.75 g (10 mmol) of potassium chloride were weighed and dissolved in 500 mL of distilled water to give a liquid C. Separately, by diluting 0.1 N sodium hydroxide solution with distilled water (×10 dilution), a liquid D was prepared.
50 mL of the liquid C and 7 mL of the liquid D were added to a 100 mL mess flask, and according to dilution to 100 mL with distilled water, a borate buffer solution of pH 8.0 was prepared. Furthermore, 50 mL of the liquid C and 40 mL of the liquid D were added to a 100 mL mess flask, and according to mess-up to 100 mL with distilled water, a borate buffer solution of pH 9.0 was prepared.
Each polysaccharide derivative obtained from above was dissolved in a buffer solution at each pH so as to have a concentration of 5 mg/10 mL, and heated for 1 week in an incubator at 36° C. Then, the drug dissociation ratio during the incubation was evaluated every 24 hours by liquid chromatography (HPLC).
The evaluation was performed by measuring the ratio between the drug amount remained in a polysaccharide derivative and the dissociated drug amount according to use of a size exclusion chromatography column (manufactured by TOSOH, TSKgel α-6000, 7.8 mmI.D.×30 cm).
Detailed conditions for the liquid chromatography are as follows.
Analysis time: 40 minutes
Solution for elution: acetonitrile (for HPLC):physiological saline=1:2
Detector: UV detector (240 nm)

For data set [2] the following is noted: rat, in vivo, inhaled or intranasal.
For data set [3] the following is noted: rat, in vivo, inhaled or intranasal. The source holds these as a separate data set.
Data set [4] in a line: Persistent property of drug in pulmonary tissue of normal rat after intratracheal administration.
Data set [5] is described as follows: Blood kinetics (plasma drug concentration) in normal rat after intratracheal administration. Conditions: betamethasone in plasma.

The record followed here is US20160158369A1, “PHARMACEUTICAL COMPOSITION FOR RESPIRATORY ADMINISTRATION” (SEIKAGAKU CORPORATION, priority 2013, published 2016).

One may read the Tmax as the time from dosing to the highest level. As a reminder, the Cmax is the maximum level reached in the sampled fluid or tissue.

Like-named read-outs stand apart in the source and are kept apart here.

For the substance “Chondroitin Sulfate Introduced with 21-β-Alanyl-Betamethasone [Compound ia]”, the “Dissociation ratio (%/day)” value was 0.8 %/day in data set [1] (pH 7.4, 36°C) and 2.4 %/day in data set [1] (pH 8.0, 36°C). Besides, the drug dissociation ratio in data set [1] (pH 7.4, 36°C, day 0) is reported as 0.0%; in data set [1] (pH 7.4, 36°C, day 1), 0.8%; in data set [1] (pH 7.4, 36°C, day 2) it was 1.5%; in data set [1] (pH 7.4, 36°C, day 3), 2.3%; in data set [1] (pH 7.4, 36°C, day 4), 3.2%; in data set [1] (pH 7.4, 36°C, day 5), 4.0%. For the same substance, the drug dissociation ratio in data set [1] (pH 7.4, 36°C, day 6) came to 4.6%; in data set [1] (pH 7.4, 36°C, day 7) it was 5.3%; in data set [1] (pH 8.0, 36°C, day 0), 0.0%; in data set [1] (pH 8.0, 36°C, day 1), 2.9%; in data set [1] (pH 8.0, 36°C, day 2) it was 5.2%; in data set [1] (pH 8.0, 36°C, day 3), 7.7%. In addition, the drug dissociation ratio in data set [1] (pH 8.0, 36°C, day 4) is 10.6%; in data set [1] (pH 8.0, 36°C, day 5), 12.8%; in data set [1] (pH 8.0, 36°C, day 6) it was 14.8%; in data set [1] (pH 8.0, 36°C, day 7) it was 16.7%. The Tmax in data set [2] and in data set [3] was 4 h each time. Moreover, in data set [3], the Cmax was determined as 10.1 ng/mL. For the same substance, the “T1/2 (disappearance half life)” value in data set [4] (dissociated betamethasone in pulmonary tissue, intratracheal 100 μL of 3 mg/mL) amounted to 128.0 h. For the same substance, in data set [4] (intratracheal, final evaluation time point 168 hours, lower limit for quantification 10 ng/g), the “time after administration until which exposure of betamethasone was observed in pulmonary tissue” value was found to be 168 h. The same substance came in with a T1/2 in data set [5] of 146.9 h.
